Assay results taken from patent US8816047B2 (Cure DM Group Holdings, LLC, priority 2007, dated 2014).
Read-outs that look alike come from different tables or passages of the source.

Experiment: Pharmacokinetics of HIP delivered intramuscularly and subcutaneously in rats (ELISA)
Format: in vivo, rat
Description: The following example illustrates the pharmacokinetics of the intramuscular and subcutaneous administration of HIP1, which is cleaved into HIP2.
The pharmacokinetics of HIP delivery with 20 rats with 5 rats per route of administration was evaluated. Similar to hamster-derived INGAP findings, the intramuscular (IM) route provided a better blood concentration of the material, but half-life determinations were under 30 minutes by ELISA measurements, as shown in FIG. 6.

half-life (rat, in vivo, im, intramuscular, read-out: half-life): < 30 min | half-life (subcutaneous versus intramuscular): slightly longer half-life
Structure (SMILES): CC[C@H](C)[C@H](NC(=O)[C@@H](N)Cc1c[nH]c2ccccc12)C(=O)NCC(=O)N[C@@H](CC(C)C)C(=O)N[C@@H](Cc1c[nH]cn1)C(=O)N[C@@H](CC(=O)O)C(=O)N1CCC[C@H]1C(=O)N[C@H](C(=O)N[C@@H](CCC(N)=O)C(=O)NCC(=O)N[C@H](C(=O)N[C@@H](CCC(=O)O)C(=O)N1CCC[C@H]1C(=O)N[C@@H](CC(N)=O)C(=O)NCC(=O)O)[C@@H](C)O)[C@@H](C)O [HIP]
